Source: PubChem BioAssay
Sampled rows, rich in hits. Any-hit rate of the full collection: about 2.1%.
GSIS activator = GLuc luminescence reporter in INS-1E cells, primary screen for activators of glucose-dependent secretion of insulin | INS-1E GLuc reporter insulin secretion, 2-3 h | activation, % at 16.6 µM | actives 0.61% (n = 370,000) | AID 743287;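 active means lowest replicate activation of at least 40%, so every replicate reaches that level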;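 further: 0% = median of neutral control wells and 100% = median of IBMX positive control wells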
Yeast UUG start = modulators of start codon recognition fidelity in yeast; S. cerevisiae UUG-firefly luciferase reporter, luminescence/redox ratio; activity score, % at 18.7 µM; 0.13% of 350,000 active;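 active = replicate mean at a twofold rise or more, about +100% in these data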;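 also: firefly luciferase made from a UUG start codon reports start codon fidelity; reporter light over untreated wells divided by growth signal over untreated wells; some hits fall short of that in this replicate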
ERp5 block = blocks human ERp5 reductase activity on insulin | actives 0.05% (n = 350,000) | ERp5 insulin aggregation, absorbance 650 nm, 90 min | inhibition, % at 9.99 µM | AID 651711;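 active means mean replicate inhibition above about 25%, with every replicate also reaching it, limit read from the data, passing the limit was not always enough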
NR1D1 modulator = Rev-erb alpha (human) modulation; AID 1259318; activity, % at 10 µM; actives 0.79% (n = 370,000); P20393; Rev-erbα–FITC-DNA binding, fluorescence polarization, 90 min;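 active means activity above about 14%, limit read from the data; passing the limit was not always enough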;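 further: 0% = DMSO wells with 35 nM protein and 100% = DMSO wells with 750 nM protein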
PDI inh = inhibitors of human protein disulfide isomerase; P07237; PDI insulin aggregation turbidity, A650, 90 min; inhibition, % at 10 µM; actives 0.052% (n = 350,000);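 active means mean inhibition across replicates of 30% or more, whatever share of single replicates reach that level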
SMARCA2 act = activators of SMARCA2 function; actives 1% (n = 370,000); activation, % at 9.1 µM; MG213 cells, MMTV-luciferase reporter, dexamethasone, overnight; in the data active means activation above about 7.8%;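 further: 0% = vehicle wells and 100% = reference activator wells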
The depositor's hits bear a star; x = not tested or not shown; ! = not confirmed by another sample.

nr | mol | GSIS activator | Yeast UUG start | ERp5 block
1 | O=c1c2sccc2n(Cc2cccc(F)c2)c(=O)n1-c1ccc(F)cc1 | 46* | x | x
2 | Cc1ccc(S(=O)(=O)Nc2ccc3c(c2)C(=O)N([C@H](C)CO)C[C@@H](C)[C@H](CN(C)C(=O)Nc2ccc(F)cc2)OCCCC[C@H](C)O3)cc1 | -34 | 13 | 0
3 | COc1ccc(/C=C/C(=O)O)cc1COc1cccc(C)c1 | 47* | x | x
4 | C[C@@H]1CCCCO[C@@H](CN(C)Cc2ccc(C(=O)O)cc2)[C@@H](C)CN([C@@H](C)CO)C(=O)c2cc(NC(=O)CCC(F)(F)F)ccc2O1 | 5 | 18 | -7
5 | NC(=S)NN=C1CCCCCCCCCC1 | 55* | -25 | 3
6 | Cc1ccc(C(=O)Nc2ncc(Cc3ccc(F)cc3)s2)o1 | x | -19 | x
7 | Cc1ccc(C(=O)Nc2ncc(C)s2)o1 | 6 | -32 | x
8 | O=C(c1cccc(F)c1)N1CC[C@@H]2[C@H]1c1cc(C#Cc3ccc(F)cc3)ccc1N[C@@H]2CO | 8 | -16 | 2

nr | NR1D1 modulator | PDI inh | SMARCA2 act
1 | 7 | -4 | -1
2 | x | x | x
3 | -2 | 0 | 1
4 | x | x | x
5 | -2 | -10 | -1
6 | 6 | -1 | 7.9*
7 | 0 | 0 | 4
8 | x | x | x

Following part.
nr | mol | GSIS activator | Yeast UUG start | ERp5 block
9 | O=C1CSC(c2ccc([N+](=O)[O-])cc2)N1CCN1CCCCC1 (stereo not drawn) | 13 | x | -1
10 | O=C1CSC(c2ccc([N+](=O)[O-])cc2)N1C1CCCCC1 (stereo not drawn) | 87* | x | 1
11 | CO[C@H]1CN(C)C(=O)c2ccc(NC(=O)C3CC3)cc2OC[C@H](C)N(Cc2cccc(F)c2)C[C@@H]1C | -11 | x | 8
12 | CC(C)Cn1nc(NC(=O)c2ccco2)c2cc3ccccc3nc21 | 74* | x | 5
13 | CCCn1nc(NC(=O)c2ccco2)c2cc3cc(C)ccc3nc21 | 13 | -10 | 5
14 | CCn1nc(NC(=O)c2ccco2)c2cc3ccccc3nc21 | 44* | -12 | x
15 | O=C(Nc1ccnn1C1CCN(C2CCCC2)CC1)c1ccccc1Cl | 14 | 4 | 1
16 | O=C(Nc1ccnn1C1CCN(C2CCC2)CC1)c1ccccc1Cl | 64* | -17 | -1

nr | NR1D1 modulator | PDI inh | SMARCA2 act
9 | -1 | 1 | -3
10 | 1 | -4 | 4
11 | x | x | x
12 | -2 | 2 | 0
13 | -2 | -3 | 3
14 | 2 | -3 | 1
15 | -2 | 4 | 2
16 | 3 | -16 | -1

(list continues)
nr | mol | GSIS activator | Yeast UUG start | ERp5 block
17 | COc1ccccc1NS(=O)(=O)c1ccc(C(=O)N2CCN(c3ccccn3)CC2)cc1 | -18 | 7 | 27*
18 | Cc1ccc(NS(=O)(=O)c2ccc(C(=O)N3CCN(c4ccccn4)CC3)cc2)cc1 | x | 4 | x
19 | CCNC(=O)C[C@H]1C=C[C@@H](NS(=O)(=O)c2ccc(F)cc2)[C@@H](CO)O1 | 20 | -1 | 2
20 | CCN(CC)C(=O)CSc1nnc([C@H](Cc2c[nH]c3ccccc23)NC(=O)OC(C)(C)C)o1 | x | 7 | x
21 | CSc1nnc([C@H](Cc2c[nH]c3ccccc23)NC(=O)OC(C)(C)C)o1 | 2 | x | -8
22 | CN(C)C(=O)CSc1nnc([C@H](Cc2ccccc2)NC(=O)OC(C)(C)C)o1 | -12 | -16 | 3
23 | CCSc1nnc([C@H](Cc2c[nH]c3ccccc23)NC(=O)OC(C)(C)C)o1 | x | -19 | x
24 | COc1ccc(-c2ccc(=O)n(CC(=O)Nc3cccc(O)c3)n2)cc1OC | 117* | -3 | x

nr | NR1D1 modulator | PDI inh | SMARCA2 act
17 | -1 | -5 | -2
18 | -2 | 12 | -1
19 | x | x | x
20 | -5 | 56* | -1
21 | 0 | 28 | 7
22 | -2 | 11 | -5
23 | -4 | 49* | 2
24 | 4 | 1 | 3

(next part)
nr | mol | GSIS activator | Yeast UUG start | ERp5 block
25 | COc1ccc(-c2ccc(=O)n(CC(=O)Nc3nnc(C(C)C)s3)n2)cc1OC | x | -11 | x
26 | Cn1nnnc1SCC1=C(C(=O)O)N2C(=O)[C@H](NC(=O)C(OC=O)c3ccccc3)C2SC1 (stereo partly drawn) | x | x | x
27 | COc1ccccc1NC(=O)N1C[C@@H](O)COC[C@@H]2O[C@H](CC(=O)NCCc3ccccc3)CC[C@H]21 | 6 | 6 | -12
28 | CCSc1nnc2ccc(-c3cccs3)nn12 | 43* | -24 | 0
29 | CCS(=O)(=O)N1CCCCN2[C@@H](CO)[C@@H](c3ccc(-c4ccccc4F)cc3)[C@@H]2C1 | 1 | -6 | 0
30 | CCC(=O)N(C)C[C@@H]1Oc2cc(C#CCC(C)C)ccc2S(=O)(=O)N([C@H](C)CO)C[C@@H]1C | -7 | 20 | -2
31 | O=C(CC1CC1)N1[C@H](CO)[C@@H](c2ccccc2)C12CN(S(=O)(=O)c1ccccc1)C2 | 15 | x | 4
32 | C=CCNC(=S)Nc1ccc2cn[nH]c2c1 | 40* | x | -1

nr | NR1D1 modulator | PDI inh | SMARCA2 act
25 | -2 | 3 | -2
26 | -7 | x | x
27 | x | x | x
28 | -2 | -1 | 0
29 | x | x | x
30 | x | x | x
31 | x | x | x
32 | 0 | 1 | -3

Structural class, those above containing a Cl atom.
nr | mol | GSIS activator | Yeast UUG start | ERp5 block
15 | O=C(Nc1ccnn1C1CCN(C2CCCC2)CC1)c1ccccc1Cl | 14 | 4 | 1
16 | O=C(Nc1ccnn1C1CCN(C2CCC2)CC1)c1ccccc1Cl | 64* | -17 | -1

nr | NR1D1 modulator | PDI inh | SMARCA2 act
15 | -2 | 4 | 2
16 | 3 | -16 | -1

The list goes on.
nr | mol | GSIS activator | Yeast UUG start | ERp5 block
33 | C[C@@H]1CN([C@H](C)CO)C(=O)CCCn2cc(nn2)CO[C@H]1CN(C)S(=O)(=O)c1cccs1 | 41*! | -11 | -3
34 | Fc1ccc(/C=N/c2c(-c3ccc(F)cc3)nc3n2CCS3)cc1 | 62* | -3 | x
35 | CCSc1nnc(NC(=O)c2csc3c2CCCC3)s1 | 119* | -11 | x
36 | CCSc1nnc(NC(=O)c2csc3c2CCC(C)C3)s1 (stereo not drawn) | x | -3 | x
37 | COc1ccc(CN(C)C[C@H]2Oc3ccc(NS(=O)(=O)c4cccs4)cc3CC(=O)N([C@@H](C)CO)C[C@@H]2C)cc1 | 19 | x | 5
38 | Clc1cccc(Oc2ncc(CN3CCOCC3)s2)c1 | x | -17 | x
39 | Cc1ccc(Oc2ncc(CN3CCOCC3)s2)cc1 | x | -15 | x
40 | CS(=O)(=O)N1CCN(c2ccc([N+](=O)[O-])c(NCc3ccccc3)c2)CC1 | x | 14 | x

nr | NR1D1 modulator | PDI inh | SMARCA2 act
33 | 3 | x | -5
34 | 9 | -1 | 2
35 | 12 | -3 | -3
36 | 3 | 4 | -2
37 | x | x | x
38 | 3 | 3 | 7.9*
39 | -2 | 6 | 4
40 | 21 | -1 | 1

Additional entries
nr | mol | GSIS activator | Yeast UUG start | ERp5 block
41 | CCS(=O)(=O)N1CCN(c2ccc([N+](=O)[O-])c(NCc3ccccc3)c2)CC1 | x | 240* | x
42 | COc1ccc(NC(=O)CSc2nnc3ccc(-c4cccnc4)nn23)c(OC)c1 | 70* | -3 | 3
43 | COc1ccccc1NC(=O)CSc1nnc2ccc(-c3cccnc3)nn12 | -6 | -21 | -1
44 | O=C(/C=C(\Nc1cc(Cl)c(Cl)c(Cl)c1)c1ccccc1)c1ccccc1 | 4 | x | 2
45 | O=C(/C=C(\Nc1cc(Cl)c(F)c(Cl)c1)c1ccccc1)c1ccccc1 | 157* | x | -3
46 | CCCC/C=C/C(NC(=O)CCc1ccccc1)c1ccccc1 (stereo not drawn) | -32 | -3 | -4
47 | CCCC/C=C/[C@H](c1ccccc1)[C@H](CO)Cc1cccnc1 | 104* | -8 | -2
48 | Fc1cccc(CCN2CCNC[C@@H]2Cc2ccccc2)c1 | x | -6 | 0
49 | FC(F)(F)c1cc(CCN2CCNC[C@@H]2Cc2ccccc2)cc(C(F)(F)F)c1 | 191* | -2 | 7

nr | NR1D1 modulator | PDI inh | SMARCA2 act
41 | 13 | -4 | 1
42 | -4 | 7 | -1
43 | 5 | -2 | -2
44 | -2 | x | -3
45 | -5 | x | -4
46 | -6 | -2 | 0
47 | -4 | -5 | 2
48 | -2 | -4 | 1
49 | 1 | -2 | 0

With a hit mark in Yeast UUG start, among the entries above:
nr | mol | GSIS activator | Yeast UUG start | ERp5 block
41 | CCS(=O)(=O)N1CCN(c2ccc([N+](=O)[O-])c(NCc3ccccc3)c2)CC1 | x | 240* | x

nr | NR1D1 modulator | PDI inh | SMARCA2 act
41 | 13 | -4 | 1
